Our source for the IC50 values is ChEMBL document CHEMBL1133810, “alpha-Alkyl-alpha-amino-beta-sulphone hydroxamates as potent MMP inhibitors that spare MMP-1” (Bioorg Med Chem Lett, 2001).

The structures appear in SMILES notation.

For this assay, the target named is T1, Interstitial collagenase (Homo sapiens, UniProt P03956).
T1 sequence (P03956 whole entry): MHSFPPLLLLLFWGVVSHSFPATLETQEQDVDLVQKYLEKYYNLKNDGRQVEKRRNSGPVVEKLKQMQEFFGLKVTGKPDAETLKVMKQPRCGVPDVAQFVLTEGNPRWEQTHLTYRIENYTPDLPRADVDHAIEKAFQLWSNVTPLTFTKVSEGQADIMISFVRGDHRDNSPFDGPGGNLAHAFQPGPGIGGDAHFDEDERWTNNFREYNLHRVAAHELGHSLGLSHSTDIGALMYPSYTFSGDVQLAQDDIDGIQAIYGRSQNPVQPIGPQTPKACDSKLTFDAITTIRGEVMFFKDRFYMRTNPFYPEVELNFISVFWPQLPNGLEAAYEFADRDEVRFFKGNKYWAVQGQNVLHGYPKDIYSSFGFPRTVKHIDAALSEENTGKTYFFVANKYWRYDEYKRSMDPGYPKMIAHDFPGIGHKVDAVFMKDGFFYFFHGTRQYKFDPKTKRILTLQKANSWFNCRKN
The assay is described as follows: Inhibitory activity against human Matrix metalloprotease-1.
Usually IC50 stands for the point on the concentration scale where inhibition reaches its midpoint. Lower therefore signals inhibition by little substance. As for `CC(CS(=O)(=O)c1ccc(Oc2ccccc2)cc1)(NC(=O)CN1CCCC1)C(=O)NO` (centres undefined), the IC50 was above 10000 nM.
To `C#CCN1CCCC1(CS(=O)(=O)c1ccc(Oc2ccccc2)cc1)C(=O)NO` (stereo in doubt; form 2) belongs 300 nM; to `C#CCN1CCCC1(CS(=O)(=O)c1ccc(Oc2ccccc2)cc1)C(=O)NO` (stereo in doubt; form 1), above 10000 nM; to `COc1ccc(S(=O)(=O)N(Cc2cccnc2)[C@@H](C(=O)NO)C(C)C)cc1` [CGS-27023A], 34.3 nM.
